Experimental data: patent publication US11028072B2, “2,4-diamino-6-ethylpyrimidine derivatives with antimalarial activities against Plasmodium falciparum” (National Science and Technology Development Agency, priority 2015, dated 2021)

Key:
[1] = test system: Human dihydrofolate reductase (hDHFR); test: Inhibition of human dihydrofolate reductase (Ki); type: biochemical; settings: Ki hDHFR divided by Ki quadruple mutant pfDHFR
Vero cells = settings: IC50 Vero cells divided by IC50 V1/S
Excerpt: In Vitro Antimalarial Activites Against P. falciparum and Cytotoxicity Towards Mammalian Cells (Vero Cells)

CCc1nc(N)nc(N)c1-c1cn(-c2cccc(C(=O)O)c2)nn1.Cl [Compound 2, 2,4-diamino-6-ethyl-5-(1-(3-(carboxy)phenyl)-1H-1,2,3-triazol-4-yl)pyrimidine Hydrochloride]
Selectivity ratio of Ki hDHFR/Ki QM [1]: 15.03

CCc1nc(N)nc(N)c1-c1cn(Cc2ccccc2)nn1 [Compound 3]
Selectivity ratio (IC50 ratio) Vero/V1/S (Vero cells): >2.51 | Selectivity ratio of Ki hDHFR/Ki QM [1]: 225.13

CCc1nc(N)nc(N)c1-c1cn(Cc2ccc(C(=O)OC)cc2)nn1 [Compound 4]
Selectivity ratio of Ki hDHFR/Ki QM [1]: 106.74

CCc1nc(N)nc(N)c1-c1cn(Cc2ccc(C(=O)O)cc2)nn1 [Compound 5]
Selectivity ratio of Ki hDHFR/Ki QM [1]: 25.75

CCc1nc(N)nc(N)c1-c1cn(Cc2ccc(OC(=O)N(c3ccccc3)c3ccccc3)cc2)nn1 [Compound 6]
Selectivity ratio (IC50 ratio) Vero/V1/S (Vero cells): >5.80

CCc1nc(N)nc(N)c1-c1cn(CCc2ccccc2)nn1 [Compound 7]
Selectivity ratio of Ki hDHFR/Ki QM [1]: 45.94

CCc1nc(N)nc(N)c1-c1cn(CCCc2ccccc2)nn1 [Compound 8]
Selectivity ratio (IC50 ratio) Vero/V1/S (Vero cells): >1.55 | Selectivity ratio of Ki hDHFR/Ki QM [1]: 74.02

CCc1nc(N)nc(N)c1-c1cn(CCOc2ccc(Cl)cc2)nn1 [Compound 9]
Selectivity ratio (IC50 ratio) Vero/V1/S (Vero cells): 2.98 | Selectivity ratio of Ki hDHFR/Ki QM [1]: 155.40

CCc1nc(N)nc(N)c1-c1cn(CCOc2ccc(C(=O)OC)cc2)nn1 [Compound 10]
Selectivity ratio (IC50 ratio) Vero/V1/S (Vero cells): 1.85

CCc1nc(N)nc(N)c1-c1cn(CCCOc2ccc(Cl)cc2)nn1 [Compound 11]
Selectivity ratio (IC50 ratio) Vero/V1/S (Vero cells): <0.97 | Selectivity ratio of Ki hDHFR/Ki QM [1]: 34.84

CCc1nc(N)nc(N)c1-c1cn(CCCOc2ccc(C(=O)OC)cc2)nn1 [Compound 12]
Selectivity ratio (IC50 ratio) Vero/V1/S (Vero cells): <0.95 | Selectivity ratio of Ki hDHFR/Ki QM [1]: 25.75

CCc1nc(N)nc(N)c1OCc1cn(-c2cccc([N+](=O)[O-])c2)nn1 [Compound 14]
Selectivity ratio (IC50 ratio) Vero/V1/S (Vero cells): >11.29 | Selectivity ratio of Ki hDHFR/Ki QM [1]: >2108.90

CCc1nc(N)nc(N)c1OCc1cn(-c2cccc(C(=O)OC)c2)nn1 [Compound 15]
Selectivity ratio (IC50 ratio) Vero/V1/S (Vero cells): >2.84

CCc1nc(N)nc(N)c1OCc1cn(-c2cccc(C(=O)O)c2)nn1.Cl [Compound 16, 2,4-diamino-6-ethyl-5-((1-(3-(carboxy)phenyl)-1H-1,2,3-triazol-4-yl)methoxy)pyrimidine Hydrochloride]
Selectivity ratio of Ki hDHFR/Ki QM [1]: 132.21

CCc1nc(N)nc(N)c1OCc1cn(-c2ccc([N+](=O)[O-])cc2)nn1 [Compound 17]
Selectivity ratio (IC50 ratio) Vero/V1/S (Vero cells): >3.35 | Selectivity ratio of Ki hDHFR/Ki QM [1]: >250.97

CCc1nc(N)nc(N)c1OCc1cn(-c2ccc(C(=O)OC)cc2)nn1 [Compound 18]
Selectivity ratio (IC50 ratio) Vero/V1/S (Vero cells): >3.68

CCc1nc(N)nc(N)c1OCCc1cn(-c2cccc(C(=O)O)c2)nn1 [Compound 20]
Selectivity ratio (IC50 ratio) Vero/V1/S (Vero cells): >14.37 | Selectivity ratio of Ki hDHFR/Ki QM [1]: 46.43

CCc1nc(N)nc(N)c1OCCc1cn(-c2ccc(C(=O)OC)cc2)nn1 [Compound 21]
Selectivity ratio of Ki hDHFR/Ki QM [1]: 123.66

CCc1nc(N)nc(N)c1OCCCc1cn(-c2cccc(C(=O)O)c2)nn1 [Compound 23]
Selectivity ratio (IC50 ratio) Vero/V1/S (Vero cells): >78.13 | Selectivity ratio of Ki hDHFR/Ki QM [1]: 54.02

CCc1nc(N)nc(N)c1OCCCc1cn(-c2ccc(C(=O)OC)cc2)nn1 [Compound 24]
Selectivity ratio of Ki hDHFR/Ki QM [1]: 9.98

CCc1nc(N)nc(N)c1OCCCc1cn(-c2ccc(C(=O)O)cc2)nn1 [Compound 25]
Selectivity ratio (IC50 ratio) Vero/V1/S (Vero cells): 1.38 | Selectivity ratio of Ki hDHFR/Ki QM [1]: 12.73

CCc1nc(N)nc(N)c1OCCCc1cn(Cc2ccc(C(=O)O)cc2)nn1 [Compound 32]
Selectivity ratio (IC50 ratio) Vero/V1/S (Vero cells): >13.33 | Selectivity ratio of Ki hDHFR/Ki QM [1]: 11.52

CCc1nc(N)nc(N)c1OCc1cc(-c2ccccc2)no1 [Compound 33]
Selectivity ratio (IC50 ratio) Vero/V1/S (Vero cells): >1.59 | Selectivity ratio of Ki hDHFR/Ki QM [1]: 38.93

CCc1nc(N)nc(N)c1OCc1cc(-c2ccc(F)cc2)no1 [Compound 34]
Selectivity ratio (IC50 ratio) Vero/V1/S (Vero cells): >1.32 | Selectivity ratio of Ki hDHFR/Ki QM [1]: 13.89

CCc1nc(N)nc(N)c1OCc1cc(-c2ccc(Cl)cc2)no1 [Compound 35]
Selectivity ratio (IC50 ratio) Vero/V1/S (Vero cells): >1.20 | Selectivity ratio of Ki hDHFR/Ki QM [1]: 18.00

CCc1nc(N)nc(N)c1OCc1cc(-c2cccc(OC)c2)no1 [Compound 38]
Selectivity ratio of Ki hDHFR/Ki QM [1]: 47.32

CCc1nc(N)nc(N)c1OCc1cc(-c2ccc(OC)cc2)no1 [Compound 42]
Selectivity ratio of Ki hDHFR/Ki QM [1]: 25.71

CCc1nc(N)nc(N)c1OCc1cc(-c2ccc([N+](=O)[O-])cc2)no1 [Compound 43]
Selectivity ratio of Ki hDHFR/Ki QM [1]: >326.51

CCc1nc(N)nc(N)c1OCc1cc(-c2ccc(C(=O)O)cc2)no1 [Compound 44]
Selectivity ratio of Ki hDHFR/Ki QM [1]: >408.21

CCc1nc(N)nc(N)c1OCc1coc(-c2cccc(OCC(=O)OCc3ccccc3)c2)n1 [Compound 53]
Selectivity ratio of Ki hDHFR/Ki QM [1]: 14.96

CCc1nc(N)nc(N)c1OCc1coc(-c2cccc(OCC(=O)O)c2)n1 [Compound 54]
Selectivity ratio of Ki hDHFR/Ki QM [1]: 2.07

CCc1nc(N)nc(N)c1OCc1coc(-c2ccc(Cl)cc2)n1 [Compound 55]
Selectivity ratio of Ki hDHFR/Ki QM [1]: >3043.21

CCc1nc(N)nc(N)c1OCc1coc(-c2ccc(OCC(=O)O)cc2)n1 [Compound 57]
Selectivity ratio of Ki hDHFR/Ki QM [1]: 9.18

CCc1nc(N)nc(N)c1OCCc1coc(-c2ccc(C(=O)O)cc2)n1 [Compound 59]
Selectivity ratio of Ki hDHFR/Ki QM [1]: 11.15

CCc1nc(N)nc(N)c1OCc1csc(-c2cccc(OCC(=O)OCc3ccccc3)c2)n1 [Compound 63]
Selectivity ratio of Ki hDHFR/Ki QM [1]: 3.48

CCc1nc(N)nc(N)c1OCc1csc(-c2cccc(OCC(=O)O)c2)n1 [Compound 64]
Selectivity ratio of Ki hDHFR/Ki QM [1]: 4.45

CCc1nc(N)nc(N)c1OCc1csc(-c2cccc(C(=O)OC)c2)n1 [Compound 65]
Selectivity ratio of Ki hDHFR/Ki QM [1]: 3.44

CCc1nc(N)nc(N)c1OCc1csc(-c2cccc(C(=O)O)c2)n1.Cl [Compound 66, 2,4-diamino-6-ethyl-5-((2-(3-(carboxy)phenyl)thiazol-4-yl)methoxy)pyrimidine Hydrochloride]
Selectivity ratio of Ki hDHFR/Ki QM [1]: 2.79

CCc1nc(N)nc(N)c1OCc1csc(-c2ccc(F)cc2)n1 [Compound 69]
Selectivity ratio of Ki hDHFR/Ki QM [1]: 6.98

CCc1nc(N)nc(N)c1OCc1csc(-c2ccc(OCC(=O)OCc3ccccc3)cc2)n1 [Compound 72]
Selectivity ratio of Ki hDHFR/Ki QM [1]: 4.63

CCc1nc(N)nc(N)c1OCc1csc(-c2ccc(OCC(=O)O)cc2)n1 [Compound 73]
Selectivity ratio of Ki hDHFR/Ki QM [1]: 12.36

CCc1nc(N)nc(N)c1OCc1csc(-c2ccc(C(=O)O)cc2)n1 [Compound 75]
Selectivity ratio of Ki hDHFR/Ki QM [1]: 7.69
